In PubChem BioAssay (EPA / NIEHS):
This is a selection; strong and weak results do not stand in their true shares. Calls of active or inactive are those of the source. Rule for the calls: active = hit-call score of the fitted dose curve at least 0.9, where 1 is the maximum; inactive = score below 0.9.

Amino acid sequences for entries named in this document (tags omitted).
UniProt P17676, whole entry: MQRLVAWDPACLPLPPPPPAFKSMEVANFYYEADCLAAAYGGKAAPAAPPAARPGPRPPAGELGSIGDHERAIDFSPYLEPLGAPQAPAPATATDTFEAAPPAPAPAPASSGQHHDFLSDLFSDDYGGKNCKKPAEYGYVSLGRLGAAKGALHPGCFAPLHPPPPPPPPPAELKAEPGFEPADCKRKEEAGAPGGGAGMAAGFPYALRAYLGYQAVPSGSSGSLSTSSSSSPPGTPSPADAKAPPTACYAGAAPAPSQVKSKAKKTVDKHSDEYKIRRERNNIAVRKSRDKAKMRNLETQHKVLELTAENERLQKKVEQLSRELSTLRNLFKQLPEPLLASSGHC
UniProt P35869, whole entry: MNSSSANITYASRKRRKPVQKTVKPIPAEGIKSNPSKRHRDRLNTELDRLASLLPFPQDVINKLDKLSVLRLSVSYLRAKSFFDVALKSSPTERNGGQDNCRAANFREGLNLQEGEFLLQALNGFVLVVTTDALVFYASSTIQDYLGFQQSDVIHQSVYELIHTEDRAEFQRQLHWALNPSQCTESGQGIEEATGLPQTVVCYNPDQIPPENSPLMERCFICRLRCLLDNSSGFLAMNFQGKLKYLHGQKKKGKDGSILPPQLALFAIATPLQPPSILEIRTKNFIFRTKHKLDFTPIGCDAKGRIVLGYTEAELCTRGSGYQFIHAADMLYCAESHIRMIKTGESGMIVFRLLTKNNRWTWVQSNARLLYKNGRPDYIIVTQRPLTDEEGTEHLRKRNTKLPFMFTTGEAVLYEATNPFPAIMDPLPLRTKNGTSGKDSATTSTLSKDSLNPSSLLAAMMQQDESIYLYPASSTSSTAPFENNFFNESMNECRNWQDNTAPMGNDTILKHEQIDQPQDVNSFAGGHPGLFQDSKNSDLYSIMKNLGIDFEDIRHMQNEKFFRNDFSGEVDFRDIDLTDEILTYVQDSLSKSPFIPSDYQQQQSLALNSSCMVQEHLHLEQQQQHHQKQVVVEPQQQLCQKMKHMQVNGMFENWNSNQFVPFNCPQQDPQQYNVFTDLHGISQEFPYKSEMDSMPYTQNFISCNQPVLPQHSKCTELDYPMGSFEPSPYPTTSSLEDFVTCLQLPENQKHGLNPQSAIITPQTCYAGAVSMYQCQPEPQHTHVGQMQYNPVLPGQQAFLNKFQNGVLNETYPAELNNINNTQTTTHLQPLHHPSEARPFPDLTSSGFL
UniProt P10276, whole entry: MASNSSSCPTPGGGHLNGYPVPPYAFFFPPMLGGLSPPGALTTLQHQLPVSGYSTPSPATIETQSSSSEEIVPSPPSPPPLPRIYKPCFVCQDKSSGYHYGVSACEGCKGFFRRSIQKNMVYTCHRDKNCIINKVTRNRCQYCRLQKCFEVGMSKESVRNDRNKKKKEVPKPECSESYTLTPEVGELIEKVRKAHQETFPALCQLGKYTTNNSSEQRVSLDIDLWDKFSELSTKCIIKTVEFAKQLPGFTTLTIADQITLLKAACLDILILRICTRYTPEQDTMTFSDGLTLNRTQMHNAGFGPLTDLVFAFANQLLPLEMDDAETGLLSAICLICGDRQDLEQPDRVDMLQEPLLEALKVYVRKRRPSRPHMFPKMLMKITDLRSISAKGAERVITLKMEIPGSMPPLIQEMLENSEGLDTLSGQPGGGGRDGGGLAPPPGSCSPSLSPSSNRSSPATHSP
UniProt Q9Y261, whole entry: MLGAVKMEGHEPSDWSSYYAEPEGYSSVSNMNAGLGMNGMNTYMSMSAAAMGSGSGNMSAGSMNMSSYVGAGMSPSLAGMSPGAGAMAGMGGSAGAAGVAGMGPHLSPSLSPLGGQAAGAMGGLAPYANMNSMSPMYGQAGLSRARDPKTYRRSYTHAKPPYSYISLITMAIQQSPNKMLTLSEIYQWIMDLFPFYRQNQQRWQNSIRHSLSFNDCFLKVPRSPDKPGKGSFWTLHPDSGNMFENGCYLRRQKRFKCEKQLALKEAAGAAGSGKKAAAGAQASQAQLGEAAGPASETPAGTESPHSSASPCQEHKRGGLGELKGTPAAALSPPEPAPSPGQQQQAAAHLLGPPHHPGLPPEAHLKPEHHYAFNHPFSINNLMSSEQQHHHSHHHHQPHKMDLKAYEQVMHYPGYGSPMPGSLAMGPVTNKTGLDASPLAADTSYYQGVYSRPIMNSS
UniProt Q9UBC0, whole entry: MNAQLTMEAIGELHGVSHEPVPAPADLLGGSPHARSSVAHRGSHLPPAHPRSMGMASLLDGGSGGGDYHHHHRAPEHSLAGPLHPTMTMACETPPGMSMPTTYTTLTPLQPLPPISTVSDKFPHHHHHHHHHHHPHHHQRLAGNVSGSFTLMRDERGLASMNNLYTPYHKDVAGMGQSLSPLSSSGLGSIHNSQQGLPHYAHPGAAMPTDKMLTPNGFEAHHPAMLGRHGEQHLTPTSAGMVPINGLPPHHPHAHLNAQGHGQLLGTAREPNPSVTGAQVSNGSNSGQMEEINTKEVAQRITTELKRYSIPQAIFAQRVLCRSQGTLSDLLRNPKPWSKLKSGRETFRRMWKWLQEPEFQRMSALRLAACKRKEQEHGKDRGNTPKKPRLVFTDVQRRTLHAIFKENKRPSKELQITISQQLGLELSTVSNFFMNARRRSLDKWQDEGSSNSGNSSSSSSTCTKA
UniProt Q96RI1, whole entry: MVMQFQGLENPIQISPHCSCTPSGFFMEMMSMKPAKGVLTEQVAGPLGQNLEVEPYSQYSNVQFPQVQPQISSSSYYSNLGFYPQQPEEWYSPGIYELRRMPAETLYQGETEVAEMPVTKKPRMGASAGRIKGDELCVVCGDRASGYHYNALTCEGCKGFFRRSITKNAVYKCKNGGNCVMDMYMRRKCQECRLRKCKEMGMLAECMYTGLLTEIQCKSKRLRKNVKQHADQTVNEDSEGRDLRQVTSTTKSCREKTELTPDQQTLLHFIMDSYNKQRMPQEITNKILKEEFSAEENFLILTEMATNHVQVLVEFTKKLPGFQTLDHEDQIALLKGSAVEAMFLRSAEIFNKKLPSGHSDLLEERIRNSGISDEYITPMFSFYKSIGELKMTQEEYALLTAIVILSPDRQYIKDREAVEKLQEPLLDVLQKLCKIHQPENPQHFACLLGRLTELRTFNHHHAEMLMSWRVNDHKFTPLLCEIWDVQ

Legend:
[1] = ATG_CRE_CIS: Attagene CIS-FACTORIAL HepG2 Assay for human cAMP Responsive Element (CRE) binding protein 3 (AID 2282926); settings: HepG2 CRE cis-reporter, Attagene multiplexed mRNA; actives raise or lower the signal
How it was run: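 Capillary electrophoresis of 6-FAM-labelled, HpaI-digested PCR products quantified reporter transcripts. These came from HepG2 transiently transfected with cis-element reporters and exposed to test chemicals for 24 hours, with DMSO defining baseline activity.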

[2] = biological target: CCAAT/enhancer-binding protein beta (Homo sapiens) (UniProt P17676); experiment: ATG_C_EBP_CIS: Attagene CIS-FACTORIAL HepG2 Assay for human CCAAT/Enhancer Binding Protein (C/EBP) beta (AID 2282927); settings: HepG2 Attagene cis-factorial transcription factor reporter; actives raise or lower the signal
How it was run: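 Following a 24 h incubation with test chemical, transfected HepG2 cells yielded RNA whose reporter transcripts were quantified by RT-PCR and fluorescent capillary electrophoresis, with DMSO serving as baseline for bidirectional fitting.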

[3] = ATG_CMV_CIS: Attagene CIS-FACTORIAL HepG2 Assay for human CMV (Internal Marker) (AID 2282928); settings: HepG2 CMV promoter reporter, transcription factor profiling; actives raise or lower the signal;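 note: endpoint acts as a background internal control marker rather than a target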
How it was run: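 Bidirectional fits against DMSO are applied to reporter mRNA, read by RT-PCR with capillary electrophoresis, from HepG2 cells exposed 24 h. The endpoint serves as an internal CMV background marker within the cis-factorial reporter panel.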

[4] = ATG_DR4_LXR_CIS: Attagene CIS-FACTORIAL HepG2 Assay for human Liver X Receptor (LXR), DR4 submotif (AID 2282929); settings: HepG2 Attagene DR4 cis-reporter, mRNA transcription; actives raise or lower the signal
How it was run: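 The endpoint is DR4-element-driven reporter transcripts after 24 h chemical exposure of transfected HepG2 cells. These were measured via RT-PCR and capillary electrophoresis, and gain or loss of signal was fitted relative to DMSO controls.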

[5] = biological target: Aryl hydrocarbon receptor (Homo sapiens) (UniProt P35869); experiment: ATG_Ahr_CIS: Attagene CIS-FACTORIAL HepG2 Assay for human Aryl Hydrocarbon Receptor (Ahr) (AID 2282930); settings: HepG2 AhR cis-factorial reporter transcription; actives raise or lower the signal
How it was run: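 Values derive from bidirectional fitting against DMSO negative control. Underlying signal: cis-element reporter mRNA in transiently transfected HepG2, harvested 24 h post-dose and measured by RT-PCR plus capillary electrophoresis.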

[6] = ATG_AP_2_CIS: Attagene CIS-FACTORIAL HepG2 Assay for human Activator Protein 2 (AP-2) (AID 2282932); settings: HepG2 AP-2 cis-reporter, Attagene transcription factor profiling; actives raise or lower the signal
How it was run: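 Cells (HepG2) transfected with promoter-driven reporter constructs, treated 24 h. Total RNA reverse-transcribed, reporter cDNA PCR-amplified, FAM-labelled by primer extension, digested, resolved by capillary electrophoresis. Activity fitted both directions versus DMSO.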

[7] = ATG_BRE_CIS: Attagene CIS-FACTORIAL HepG2 Assay for human Bone Morphogenetic Protein (BMP) Response Element (BRE) (AID 2282933); settings: HepG2 BMP response element reporter, Attagene transcription factor profiling; actives raise or lower the signal
How it was run: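 HepG2 cells transiently transfected with multiplexed cis-element reporter units were dosed with chemical for 24 h. Reporter mRNA was measured by RT-PCR with fluorescent labelling, HpaI digestion and capillary electrophoresis; bidirectional fitting relative to DMSO.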

[8] = biological target: Retinoic acid receptor alpha (Homo sapiens) (UniProt P10276); experiment: ATG_DR5_RAR_CIS: Attagene CIS-FACTORIAL HepG2 Assay for human Retinoic Acid Receptor Alpha (RARE), DR5 submotif (AID 2282934); settings: HepG2 Attagene cis-factorial RARE DR5 reporter, mRNA; actives raise or lower the signal;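 for AC50: reporter responds to endogenous RAR alpha beta and gamma in HepG2 not RARA alone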
[9] = ATG_EGR_CIS: Attagene CIS-FACTORIAL HepG2 Assay for human Early Growth Response 1 (EGR1) (AID 2282938); settings: HepG2 Attagene CIS-FACTORIAL EGR reporter mRNA; actives raise or lower the signal
How it was run: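 After 24 h compound exposure, RNA from reporter-transfected HepG2 cells was reverse-transcribed, PCR-amplified, fluorescently labelled and resolved by capillary electrophoresis. EGR1 reporter transcript changes, up or down, were fitted against DMSO, reflecting endogenous transcription-factor activity.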

[10] = ATG_ERE_CIS: Attagene CIS-FACTORIAL HepG2 Assay for Estrogen Response Element (ERE) (AID 2282940); settings: HepG2 ERE cis-reporter, Attagene RNA transcript; actives raise or lower the signal
How it was run: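 HepG2 cells transiently transfected with cis-promoter-driven multiplexed reporter transcription units report endogenous TF activity. After 24 h compound exposure, reporter mRNA is quantified by RT-PCR with capillary electrophoresis fluorescence; bidirectional fitting versus DMSO baseline.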

[11] = ATG_Ets_CIS: Attagene CIS-FACTORIAL HepG2 Assay for human Erythroblast Transformation Specific (ETS) (AID 2282941); settings: HepG2 ETS cis-reporter transcription, actives raise or lower the signal
How it was run: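 Endogenous transcription factor activity read as reporter mRNA via RT-PCR and capillary electrophoresis, with gain or loss fitted bidirectionally against DMSO. Human HepG2 liver cells, transiently transfected CIS reporter constructs, 24 h exposure.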

[12] = biological target: Hepatocyte nuclear factor 3-beta (Homo sapiens) (UniProt Q9Y261); experiment: ATG_FoxA2_CIS: Attagene CIS-FACTORIAL HepG2 Assay for human Forkhead box A2 (FOXA2) (AID 2282942); settings: HepG2 cis-reporter transcription factor activity, 24 h; actives raise or lower the signal
How it was run: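 Endogenous transcription factor activity is captured via cis-element-driven reporter transcripts in transfected HepG2. Total RNA taken at 24 h post-dosing; labelled RT-PCR products resolved by capillary electrophoresis. Gain or loss fitted versus DMSO.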

[13] = ATG_FoxO_CIS: Attagene CIS-FACTORIAL HepG2 Assay for human Forkhead box O (FoxO) (AID 2282943); settings: HepG2 Attagene cis-reporter, FoxO element, mRNA; actives raise or lower the signal
How it was run: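 Values reflect reporter mRNA induction or loss in HepG2 cells 24 h post-dosing, fitted bidirectionally with DMSO as negative control and baseline. Detection used RT-PCR and fluorescence capillary electrophoresis.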

[14] = ATG_GATA_CIS: Attagene CIS-FACTORIAL HepG2 Assay for human GATA Binding Protein (AID 2282944); settings: HepG2 GATA cis-element reporter, Attagene multiplex mRNA; actives raise or lower the signal
How it was run: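 HepG2 cells transiently transfected with multiplexed cis-element reporter units reflecting endogenous transcription factor activity; reporter mRNA measured after 24 h dosing by RT-PCR, 6-FAM labeling, HpaI digestion and capillary electrophoresis. Bidirectional fitting versus DMSO baseline.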

[15] = ATG_GRE_CIS: Attagene CIS-FACTORIAL HepG2 Assay for human Glucocorticoid Response Elements (GRE) (AID 2282947); settings: HepG2 GRE cis-reporter, Attagene multiplex mRNA; actives raise or lower the signal
How it was run: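 Cells (HepG2) bearing transfected cis-promoter reporter transcription units were treated with chemical for 24 hours. Reporter mRNA was measured via RT-PCR with capillary electrophoresis, and activity was fitted in both directions relative to DMSO.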

[16] = ATG_ISRE_CIS: Attagene CIS-FACTORIAL HepG2 Assay for human Interferon Regulatory Factor 1 (IRF1) binding to an Interferon-Stimulated Response Element (ISRE) (AID 2282948); settings: HepG2 ISRE cis-reporter (Attagene), mRNA transcription readout; actives raise or lower the signal
How it was run: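 Endogenous transcription factor activity read as reporter transcript abundance via RT-PCR and capillary electrophoresis. HepG2 cells transiently transfected, 24 h chemical exposure. Gain or loss fitted against DMSO baseline.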

[17] = ATG_M_32_CIS: Attagene CIS-FACTORIAL HepG2 Assay for M32 Transcription Factor (Internal Marker) (AID 2282949); settings: HepG2 Attagene cis-factorial M32 reporter, mRNA; actives raise or lower the signal;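 note: background control marker of the multiplexed CIS panel rather than a real target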
How it was run: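 HepG2 human liver cells transiently transfected with cis-promoter-driven multiple reporter transcription units, dosed 24 h. Reporter mRNA quantified by RT-PCR, FAM-labelled primer extension, HpaI digest and capillary electrophoresis; bidirectional fit versus DMSO baseline.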

[18] = ATG_M_06_CIS: Attagene CIS-FACTORIAL HepG2 Assay for M06 Transcription Factor (Internal Marker) (AID 2282950); settings: HepG2 Attagene CIS-FACTORIAL M06 internal marker reporter; actives raise or lower the signal
How it was run: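 HepG2 cells transiently transfected with cis-regulated multiple reporter transcription units were exposed to chemical for 24 h; reporter mRNA was quantified by RT-PCR, 6-FAM primer labelling, HpaI digestion and capillary electrophoresis, fitted bidirectionally against DMSO.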

[19] = biological target: Hepatocyte nuclear factor 6 (Homo sapiens) (UniProt Q9UBC0); experiment: ATG_HNF6_CIS: Attagene CIS-FACTORIAL HepG2 Assay for human Hepatocyte Nuclear Factor 6 (HNF6) (AID 2282952); settings: HepG2 Attagene cis-factorial HNF6 reporter transcription; actives raise or lower the signal
How it was run: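 Activity values derive from bidirectional fitting against DMSO of reporter mRNA levels, measured by capillary electrophoresis of labelled RT-PCR products from HepG2 cells exposed 24 h.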

[20] = biological target: Bile acid receptor (Homo sapiens) (UniProt Q96RI1); experiment: ATG_IR1_CIS: Attagene CIS-FACTORIAL HepG2 Assay for human Nuclear Receptor Subfamily 1 Group H Member 4 (NR1H4), IR1 submotif (AID 2282946); settings: IR1 reporter transcription, actives raise or lower the signal
How it was run: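 Readout: reporter transcript levels by RT-PCR with fluorescent capillary electrophoresis, from HepG2 cells transiently transfected with multiplexed cis-regulated reporters and dosed 24 h. Gain- or loss-of-signal fitted versus DMSO negative control.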

Measured: AC50

COc1ccc([N+](=O)[O-])cc1[N+](=O)[O-]
not listed: [20]
inactive: all other assays above

CC(C)OP(C)(=O)OC(C)C
active: [5] 79.1 µM
not listed: [20]
inactive: all other assays above

N#CBr
inactive: all assays above

Cc1ccc([N+](=O)[O-])cc1[N+](=O)[O-]
active: [5] 81.1 µM
not listed: [8] | [20]
inactive: all other assays above

COP(C)(=O)OC
not listed: [20]
inactive: all other assays above

CN(C)CCCl
not listed: [4]
inactive: all other assays above

Cc1c([N+](=O)[O-])cccc1[N+](=O)[O-]
inactive: all assays above

CC(C)N(CCO)C(C)C
not listed: [8]
inactive: all other assays above

Cc1ccc([N+](=O)[O-])c([N+](=O)[O-])c1
not listed: [3] | [20]
inactive: all other assays above

O=[N+]([O-])c1cccc([N+](=O)[O-])c1
not listed: [5] | [8]
inactive: all other assays above

O=[N+]([O-])OCC(CO[N+](=O)[O-])(CO[N+](=O)[O-])CO[N+](=O)[O-]
not listed: [8] | [10]
inactive: all other assays above

Cc1cccc([N+](=O)[O-])c1[N+](=O)[O-]
active: [1] 107 µM | [3] 46.2 µM | [4] 135 µM | [7] 44.4 µM | [8] 20 µM | [10] 19.5 µM
not listed: [9] | [20]
inactive: all other assays above
